The source of these data is paper PMC8535469, “Insight into the Binding and Hydrolytic Preferences of hNudt16 Based on Nucleotide Diphosphate Substrates” (International Journal of Molecular Sciences, 2021).

The chains behind the UniProt entries cited, without tags or fusion partners.
UniProt Q96DE0, whole entry E76Q: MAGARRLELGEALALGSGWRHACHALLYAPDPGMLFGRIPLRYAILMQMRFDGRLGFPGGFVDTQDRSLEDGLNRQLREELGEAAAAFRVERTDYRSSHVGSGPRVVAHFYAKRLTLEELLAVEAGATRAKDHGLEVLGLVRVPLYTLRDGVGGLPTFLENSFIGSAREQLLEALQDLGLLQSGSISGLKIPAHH

Like-named read-outs stand apart in the source and are kept apart here. A value given as a limit tells only on which side of the number the result lay.

This assay has as its target T1, hNudt16E76Q (Homo sapiens, UniProt Q96DE0, E76Q).
T1 construct: 4xHis (four added histidines); made in house; host or cells: E. coli Rosetta 2 (DE3), pET16b
The assay is described as follows: Microscale thermophoresis (MST) binding, two independent binding sites model. How it is done: Binding constants for protein–ligand pairs were established using the MST method. The hNudt16 E76Q was labeled with RED-tris-NTA 2nd Generation dye (Monolith HIS-tag labeling Kit, NanoTemper Technologies, München, Germany) according to the manufacturer’s instructions. Measurements were carried out in a wide range of ligand concentrations, selected after preliminary tests for each of the ligands. The results obtained were used to determine of binding parameters for a given ligand. Each MST measurement consisted of a series of 16 serial 1:2 dilutions of the ligand, and was performed at a constant dye-labeled protein concentration of 50 nM. After 10 min of pre-incubation, dye-labeled protein–ligand samples were manually loaded into Monolith™ NT.115 Premium Capillaries (NanoTemper Technologies, München, Germany) and analyzed using the Monolith NT.115 (NanoTemper Technologies). […] Analysis was performed using Origin package (OriginLab, Northampton, MA, USA) and dissociation constants were fitted globally for a series of at least six MST pseudo-titration experiments for each ligand. Up to 10 replicates were performed for some ligands.
For the dissociation constants obtained, we also calculated the free energy associated with the dissociation of the complex ΔGdiss according to the equation: ΔGdiss=−RTlnKd.
(MST reads how a fluorescent partner responds to local heating, with and without ligand.)

As to Adenosine diphosphate ribose [ADPr], the “ΔGdiss1 (for Kd1)” value (calculated as −RTlnKd from MST Kd1) is 3.728 kcal/mol. For the same substance, the Kd is at least 19900 µM (second, weaker binding site, read-out: Kd2) and 1830 µM (stronger binding site, 50 nM dye-labeled protein, read-out: Kd1).
